{"source": "patent US11083748B2", "about": "(priority 2003, dated 2021)", "origin": "cited, not measured here", "key": {"[1]": {"details": "following intramuscular administration"}}, "data": [{"compound": "OCC(S)CS", "note": "(stereo not drawn)", "values": [{"measurement": "patients experiencing one of several adverse events", "setting": "patients; 5 mg/kg dose", "value": "Approximately 50%"}, {"measurement": "rise in systolic and diastolic blood pressure", "setting": "patients; human, in vivo", "value": "up to 50 mmHg"}, {"measurement": "time until essentially all renally excreted", "setting": "[1]", "value": "≤ 4", "unit": "h"}]}]}
